Test results reported in ChEMBL document CHEMBL4196042, “Novel indanone derivatives as MAO B/H3R dual-targeting ligands for treatment of Parkinson's disease” (Eur J Med Chem, 2018).

Protein sequences, listed by entry. Tags and fused reporters are not part of them. Lines headed by an entry give the natural chain unless they say otherwise; changes in a name come on top.
UniProt Q9Y5N1: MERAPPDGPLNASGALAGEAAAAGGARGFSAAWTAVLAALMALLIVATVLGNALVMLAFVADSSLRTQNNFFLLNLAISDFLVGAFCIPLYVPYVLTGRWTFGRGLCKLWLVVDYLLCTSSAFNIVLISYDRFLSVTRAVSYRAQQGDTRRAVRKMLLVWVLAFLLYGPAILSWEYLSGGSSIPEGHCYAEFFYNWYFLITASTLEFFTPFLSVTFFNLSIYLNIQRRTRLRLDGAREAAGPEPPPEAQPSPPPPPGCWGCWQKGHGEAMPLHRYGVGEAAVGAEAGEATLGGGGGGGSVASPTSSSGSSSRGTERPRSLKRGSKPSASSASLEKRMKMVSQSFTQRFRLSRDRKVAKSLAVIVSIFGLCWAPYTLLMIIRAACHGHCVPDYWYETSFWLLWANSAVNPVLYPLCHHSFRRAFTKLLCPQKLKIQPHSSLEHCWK

Target: Histamine H3 receptor (Homo sapiens, UniProt Q9Y5N1)
Assay: Binding affinity to human H3R

**Q.** With O=C(c1ccc(OCCCc2cnc[nH]2)cc1)C1CC1 [CIPROXIFAN] as the compound, how does the Ki read?
**A.** 46 to 180 nM
